Measurements as given in US10945951B2, “Apparatus for compound dispersion” (Biogen MA Inc., priority 2014, dated 2021).

What was measured:
[1] = in vivo
[2] = 20 μl bolus, intrathecal
Protocol: The same amount of each probe was used in each injected bolus. However, the total bolus volumes for the separate injections were 20 μl and 30 μl followed by a 40 μl saline flush. The boluses were injected intrathecally into rodents and the concentration of the two probes was monitored at the lumbar, thoracic, and cervical regions.

Row | Substance | migration to lymph nodes [1] | concentration change over time in the lumbar region [2] | concentration in the lumbar region at injection [2] | concentration over time in the thoracic and cervical regions [2]
1 | [^99mTc]DTPA-mannosyl-dextran [Lymphoseek] | migrated into the head and neck lymph nodes |  |  | 
2 | ^111In-DTPA |  | larger concentration decrease over time | initially high concentration | increases over time
